From BindingDB's records for doi:10.1002/cbic.200400084 (Laboratorium FÜR Organische Chemie, 2004)

Molecular target: T1, Catechol O-methyltransferase (Rattus norvegicus, UniProt P22734)
T1 sequence (P22734 whole entry): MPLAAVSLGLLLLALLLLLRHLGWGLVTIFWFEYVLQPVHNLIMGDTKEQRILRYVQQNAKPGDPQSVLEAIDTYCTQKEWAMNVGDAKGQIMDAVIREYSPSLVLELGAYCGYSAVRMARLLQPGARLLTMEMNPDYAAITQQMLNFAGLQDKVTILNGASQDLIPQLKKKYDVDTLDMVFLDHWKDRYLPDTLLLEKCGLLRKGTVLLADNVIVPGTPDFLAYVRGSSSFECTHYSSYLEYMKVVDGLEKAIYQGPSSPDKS
Experiment: Radiochemical Assay
Conditions: 37 °C
Experimental: The binding affinity of the inhibitors towards Catechol O-methyltransferase in the presence of Mg2+ ions were determined by using a radiochemical assay.

Row | Compound | IC50 [nM]
1 | Nc1ncnc2c1ncn2[C@@H]1O[C@H](/C=C/CNC(=O)c2cc(-c3nc4ccccc4s3)cc(O)c2O)[C@@H](O)[C@H]1O [Bi-substrate Inhibitor, 1g] | 29
2 | CC(C)c1cc(O)c(O)c(C(=O)NC/C=C/[C@H]2O[C@@H](n3cnc4c(N)ncnc43)[C@H](O)C2O)c1 (some centres not stated) [Bi-substrate Inhibitor, 1r] | 1370
